Earlier results in article PMC7226360.

Protein sequences, listed by entry. Tags and fused reporters are not part of them. Residues count along the entry.
UniProt O75113, 847-896: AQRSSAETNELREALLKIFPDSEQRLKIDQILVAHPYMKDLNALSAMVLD

Molecular target: ubiquitin (Homo sapiens) (UniProt P0CG48)

N4BP1 847-896 (from UniProt O75113)
Kd: 50 µM
